The source of these data is patent US11261186B2, “Biaryl derivative as GPR120 agonist” (LG CHEM, LTD., priority 2014, dated 2022).

Sequences of proteins named here, by UniProt entry; tags and fusion partners are left off.
UniProt Q5NUL3, whole entry: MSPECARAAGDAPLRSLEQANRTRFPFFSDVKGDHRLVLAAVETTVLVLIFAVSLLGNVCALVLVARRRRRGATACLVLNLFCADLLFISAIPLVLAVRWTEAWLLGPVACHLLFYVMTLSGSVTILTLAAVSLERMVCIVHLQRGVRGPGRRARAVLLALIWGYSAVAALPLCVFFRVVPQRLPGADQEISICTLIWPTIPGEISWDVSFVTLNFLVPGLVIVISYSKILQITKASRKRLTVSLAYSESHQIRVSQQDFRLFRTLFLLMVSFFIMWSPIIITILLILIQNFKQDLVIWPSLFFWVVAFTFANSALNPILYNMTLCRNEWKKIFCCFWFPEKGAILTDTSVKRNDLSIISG

The assay concerns the target hGPR120 (Homo sapiens, UniProt Q5NUL3). The experiment in a line: Measurement of Activity of GPR120 Agonist (Cell-Based Assay), Calcium 5 dye fluorescence. The note with it: CHO-K1 cells expressing Ga16 and hGPR120.
For orientation: EC50 means the midpoint of the concentration-response curve. For the compound `O=C(O)CC1CN(c2c(F)cc(-c3nccc(OC4CCC4)n3)cc2F)C1`, the EC50 is less than 200 nM.
For `O=C(O)CCCOc1c(F)cc(-c2csc(COCC3CCC3)c2)cc1F`, the EC50 is less than 200 nM.
Then `O=C(O)CC1CCN(c2c(F)cc(-c3nccc(Oc4ccc(Cl)cc4)n3)cc2F)CC1`, with less than 200 nM.
